Screening data (PubChem)
Nrf2 block – inhibitors of Nrf2 signaling. Potency, µM (titrated, usually from 46 µM), without a hit: top-dose activity change, negative = inhibition, most hits filed as inhibitors. A549 ARE-Fluc reporter, luciferase luminescence, 18-24 h. AID 504444. hit rate 2.1% among 360,000; further: potency means the concentration at half of the fitted maximal effect; on the % scale 0 is the no-effect control and ±100 the full control effect; nearly all actives have a fitted effect of over 60% in size
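In this cell-based qHTS, ARE-driven firefly luciferase in A549 cells reports Nrf2 activity; the luminescent signal after BugLite lysis is the measured value, with a prior CellTiter-Fluor read for cell health.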
A549 tox – A549 cytotoxicity, counter-screen for Nrf2 inhibitors. A549 ARE-Fluc cells, CellTiter-Fluor viability, 18-24 h. Potency, µM (titrated, usually from 46 µM), without a hit: top-dose activity change, negative = cytotoxicity, actives largely listed as inhibitors. hit rate 0.16% among 390,000; further: potency means the concentration at half of the fitted maximal effect; on the % scale 0 is the no-effect control and ±100 the full control effect
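A549 ARE_Fluc cells in 5% FBS OPTI-MEM were exposed to compounds in concentration-response for 18-24 h at 37 deg C. Viability was read by CellTiter-Fluor fluorescence (Ex 405/Em 525) after 30 min, before the luciferase read.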
GALK inhibitor – inhibitors of human galactokinase. Purified GALK, Kinase-Glo residual ATP luminescence. AID 1868. Potency, µM (top dose mostly 57.5 µM), for inactives: at the highest dose activity change, negative = inhibition, usual class: inhibitors. hit rate 0.007% among 270,000; further: potency means the concentration at half of the fitted maximal effect; on the % scale 0 is the no-effect control and ±100 the full control effect
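The enzyme phosphorylates galactose (100 uM) using ATP (35 uM); inhibition is detected as higher residual ATP, quantified by bioluminescence after 1 h reaction at room temperature, pH 8.0.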
miR-21 FLuc – miR-21 reporter, rising signal. HeLa miR-21 FLuc reporter, luciferase, 48 h. Potency, µM (highest dose often 38.3 µM), for the others: at the highest dose reporter change, positive = more light. 340,000 tested, under 10 active. AID 2288; active = well fitted rising curve with a large enough effect; inconclusive = small, poorly fitted or top-dose-only effect; inactive = no such curve, though single readings can be large or run the other way;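 further: % of control where 0% means no effect; miR-21 action dims this reporter so a rising signal means less miR-21 action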
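HeLa miR-21-FLuc reporter line, endogenous miR-21; 2000 cells/well in DMEM/10% FBS; compound titration up to ~40uM final, 48 h, 37 degree Celsius; luciferase detection reagent, 15 min lysis, CCD luminescence.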
Nrf2 ARE act – activators of Nrf2 (ARE) signaling. Potency, µM (series often up to 46.1 µM), inactives show top-dose activation, actives largely listed as activators. hit rate 0.31% among 410,000. AREc32 ARE-luciferase reporter (MCF7-derived line), luminescence, 24 h; further: potency means the concentration at half of the fitted maximal effect; % of control where 0% means no effect; nearly all actives have a fitted effect of over 65% in size
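For detection, Steady-Glo was added and plates sat 30 min at RT; before that, AREc32_Fluc cells grown overnight in OPTI-MEM/5% FBS had been treated with 23 nL compound for 24 hr at 37 deg C.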
PI4K2A inh – blocks human PI4K2A kinase activity; activity change, negative = inhibition, % at 76.9 µM; AID 1346378; hit rate 0.13% among 420,000; purified PI4K2A, ADP-Glo luminescence, 1 h; active compounds read low; in the data active means activity change below about -50%; inconclusive means mostly about -30% to -49%;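 further: -100% = wells without enzyme as full effect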
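Compounds are screened against recombinant PI4K2A using PI as substrate and ATP, the latter dispensed at 300 microM. Reactions run one hour at ambient temperature before ADP-Glo detection; full inhibition defined by wells lacking enzyme.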
* hit, by the source's call; ? = inconclusive; . = no result. A selection: hits, their analogues and other compounds. The true share with any hit is near 2.2%. Unless noted, the call rests on the fitted dose curve; in most records, active means well fitted curve in the direction sought with a large enough effect; inconclusive means small, poorly fitted or top-dose-only effect, or another doubt; inactive means no such curve, though single readings can be large; an effect the other way counts as inactive or inconclusive.

SMILES	Nrf2 block	A549 tox	GALK inhibitor	miR-21 FLuc	Nrf2 ARE act	PI4K2A inh
COc1cccc(NS(=O)(=O)c2ccc3c(c2)[C@H]2C=CC[C@H]2[C@@H](c2ccccc2Cl)N3)c1	20.6µM*	-19.3%	.	-9.1%	-1.9%	-2.9
O=C(Nc1ccc(F)cc1)c1nsc(Cl)c1Cl	?	-2.8%	0.7%	-62.9%	?	-22.6
O=C(Nc1ccc(F)c(Cl)c1)c1nsc(Cl)c1Cl	4.3%	-1.9%	-0.7%	-29.7%	3.16µM*	-14.0
Cc1cccc(-n2c(-c3ccco3)nc3c(cnn3-c3ccccc3C)c2=O)c1	20.6µM*	-6.0%	.	10.8%	2.1%	-3.5
CCC(C(=O)NC1CCCCC1)N(Cc1cccs1)C(=O)CCC(=O)Nc1cc(C)on1 (stereo not drawn)	8.2µM*	-14.1%	11.2%	7.2%	-0.1%	-2.8
Cc1cc(NC(=O)CCC(=O)N(Cc2cccs2)C(C(=O)NC2CCCC2)c2ccncc2)no1 (stereo not drawn)	9.5%	-9.2%	-0.7%	-3.4%	0.3%	1.6
NC(=S)NN=C1CSSC1	.	.	.	.	10µM*	13.5
Cc1cc2c(s1)c1cnn(Cc3ccc(F)c(F)c3)c(=O)c1n2C	12.6%	-1.7%	.	.	.	.
COc1cccc(-c2nnc3sc(-c4ccc(Br)o4)nn23)c1	.	.	.	.	.	-3.4
COc1ccc(-c2cc3nc(CCl)[nH]c(=O)c3s2)cc1	?	-1.1%	7.5%	?	12.1%	-50.3*
COc1ccc(CN(C(=O)CSc2nnc(-c3ccccc3F)o2)c2ccc(F)cc2)cc1	20.6µM*	-6.1%	1.6%	1.1%	-1.1%	-0.6
CCCCC1(O)CC(C(F)(F)F)=NN1C(=O)COc1ccccc1 (stereo not drawn)	16.4µM*	?	-1.5%	1.1%	0.0%	-0.3
C#Cc1ccc(-c2ccccc2F)cc1	.	.	.	.	.	0.3
O=C(Nc1ccc(F)cc1)c1ccc(Br)c(S(=O)(=O)N2CCOCC2)c1	14.6µM*	-16.5%	-1.4%	22.0%	3.3%	-4.2
O=C(Nc1ccc(N2CCCCCC2)cc1)c1cccc(S(=O)(=O)N2CCOCC2)c1	16.4µM*	-3.1%	.	.	0.2%	4.5
O=C(Nc1cccc(S(=O)(=O)N2CCOCC2)c1)c1cccc(S(=O)(=O)N2CCCCC2)c1	?	-3.6%	.	.	-0.7%	0.3
COc1ccc(C(=O)Nc2ccc(NC(=O)c3ccccc3)cc2)cc1S(=O)(=O)N1CCOCC1	?	-14.9%	1.7%	4.5%	0.4%	-20.2
O=C(Nc1ccc(N2CCCCC2)cc1)c1ccccn1	?	-2.7%	23.7%	?	-2.8%	-65.3*
COc1ccc(C(=O)Nc2ccc(N3CCCCCC3)cc2)cc1S(=O)(=O)N1CCOCC1	13µM*	-17.3%	.	.	-0.6%	10.1
O=C(OC12CCCN(C1)/C(=C/c1ccncc1)C2)c1cccc(F)c1 (stereo not drawn)	.	.	.	.	.	-3.5

Single records, as listed above. Order of values: Nrf2 block	A549 tox	GALK inhibitor	miR-21 FLuc	Nrf2 ARE act	PI4K2A inh
`O=C(Nc1ccc(F)cc1)c1nsc(Cl)c1Cl` across the screens: ?	-2.8%	0.7%	-62.9%	?	-22.6
`O=C(OC12CCCN(C1)/C(=C/c1ccncc1)C2)c1cccc(F)c1` (stereo not drawn) across the screens: .	.	.	.	.	-3.5

New compounds follow:
SMILES	Nrf2 block	A549 tox	GALK inhibitor	miR-21 FLuc	Nrf2 ARE act	PI4K2A inh
COc1ccc([C@H]2OC(=O)C[C@@H]2C(=O)N2CCN(c3ccccc3Cl)CC2)cc1OC	.	.	.	.	.	-0.5
COC(=O)[C@]12C[C@H](CC(=O)N3CCCCC3)C(=O)N(Cc3ccccc3)C1=C[C@H](COCc1ccccc1)O[C@@H]2C	.	.	.	.	.	3.5
O=C(Nc1ccc(Br)cc1)c1cccc(OC(=S)N2CCOCC2)c1	16.4µM*	-15.2%	-2.9%	20.2%	3.2%	2.3
COc1ccc(Br)cc1C(=O)Nc1ccc(N2CCN(S(C)(=O)=O)CC2)cc1	18.4µM*	-18.4%	0.6%	1.5%	2.5%	-5.9
CN1CCN(S(=O)(=O)c2cccc(C(=O)Nc3ccccc3N3CCCC3)c2)CC1	-13.0%	-8.2%	0.6%	-3.4%	-0.7%	-2.1
CC1CN(S(=O)(=O)c2cccc(C(=O)Nc3ccccc3N3CCCC3)c2)CC(C)O1 (stereo not drawn)	23.1µM*	-12.4%	.	.	3.5%	-1.6
CN(c1ccccc1)S(=O)(=O)c1cccc(C(=O)Nc2ccc(N3CCOCC3)cc2)c1	14.6µM*	-3.5%	.	.	3.8%	-1.5
Cc1cc(C(F)F)n2ncc(C(=O)N3CCc4ccccc4C3)c2n1	.	-5.3%	0.4%	-21.6%	-0.7%	3.9
O=C(c1cnn2c(C(F)F)cc(-c3ccccc3)nc12)N1CCc2ccccc2C1	23.1µM*	?	0.9%	7.2%	0.4%	8.7
CNc1oc(/C=C/c2ccccc2)nc1C#N	?	4.6%	.	-89.2%	2.82µM*	-3.3
COCCNc1oc(/C=C/c2ccccc2)nc1C#N	?	-5.4%	.	-70.8%	2.0%	3.1
Fc1ccc(Nc2nc(NCc3ccco3)c3ccccc3n2)cc1	18.4µM*	-11.2%	1.9%	29.1%	-1.0%	2.2
c1coc(-c2nc3ccccc3nc2-c2ccco2)c1	-30.2%	-4.0%	3.8%	-4.3%	10µM*	-11.6
Oc1ccc(-c2cnc3ccccc3n2)cc1	?	6.1%	.	.	0.8%	-15.6
c1coc(-c2cnc3ccccc3n2)c1	.	.	.	.	3.98µM*	-12.4
O=[S+]([O-])(c1ccc2c(c1)OCCO2)N1CCN([S+](=O)([O-])c2c(F)cc(Br)cc2F)CC1	-6.7%	10.2%	.	.	.	.
Cc1noc2ncnc(N3CCN(c4ccc(F)cc4)CC3)c12	7.31µM*	-6.2%	0.6%	-1.8%	-0.2%	-5.8
Cc1noc2ncnc(N3CCCCC3)c12	-8.3%	-1.0%	-0.8%	-5.8%	-0.2%	4.6
COc1ccc(CN(Cc2ccccc2)C(=O)c2ccccc2N)cc1COc1ccc(NC(C)=O)cc1	-9.9%	-2.4%	.	.	.	.
O=C(CSc1ncnc2sc3c(c12)CCCC3)Nc1ccc(Oc2ccccc2)cc1	.	.	.	.	.	-2.9
COc1ccc([C@@H]2C(C#N)=C(N)S[C@@H](c3ccccc3)[C@@H]2[N+](=O)[O-])cc1	20.6µM*	-15.3%	-0.5%	-8.6%	1.9%	-0.4
Cc1ccsc1CN(C(=O)c1oc2ccc(F)cc2c1C)C1CCS(=O)(=O)C1 (stereo not drawn)	?	-7.0%	.	0.4%	5.5%	-0.5
Cc1ccc2oc(C(=O)N(Cc3sccc3C)C3CCS(=O)(=O)C3)c(C)c2c1 (stereo not drawn)	23.1µM*	-15.4%	.	10.5%	6.3%	-1.7
CN1C2=NC(c3ccccc3)CC(=O)N2/C(=C\c2ccccc2)C1c1ccccc1C(F)(F)F (stereo not drawn)	.	.	.	.	.	6.8
CCC(=O)N1CCc2cc(Br)cc(S(=O)(=O)N3CCC(C(=O)Nc4cccc(C)c4)CC3)c21	8.2µM*	-7.9%	.	28.6%	-0.9%	-4.4
CCC(=O)N1CCc2cc(Br)cc(S(=O)(=O)N3CCC(C(=O)Nc4ccc(OC)cc4)CC3)c21	.	3.7%	.	15.3%	3.6%	-3.1

Individual results from the results shown.
Entry of Cc1ccsc1CN(C(=O)c1oc2ccc(F)cc2c1C)C1CCS(=O)(=O)C1 (stereo not drawn) in PI4K2A inh: -0.5
Entry of CCC(=O)N1CCc2cc(Br)cc(S(=O)(=O)N3CCC(C(=O)Nc4ccc(OC)cc4)CC3)c21 in PI4K2A inh: -3.1
Entry of CN1C2=NC(c3ccccc3)CC(=O)N2/C(=C\c2ccccc2)C1c1ccccc1C(F)(F)F (stereo not drawn) in PI4K2A inh: 6.8
Entry of CCC(=O)N1CCc2cc(Br)cc(S(=O)(=O)N3CCC(C(=O)Nc4cccc(C)c4)CC3)c21 in A549 tox: -7.9%
Entry of COc1ccc([C@@H]2C(C#N)=C(N)S[C@@H](c3ccccc3)[C@@H]2[N+](=O)[O-])cc1 in A549 tox: -15.3%
